The experiment concerns the target His-tagged, doubly phosphorylated LAT (48–233aa; pY132 and pY171) (UniProt O43561). In words: co-sedimentation.

Protein sequences, listed by entry. Tags and fused reporters are not part of them. Lines headed by an entry give the natural chain unless they say otherwise; changes in a name come on top.
UniProt O43561: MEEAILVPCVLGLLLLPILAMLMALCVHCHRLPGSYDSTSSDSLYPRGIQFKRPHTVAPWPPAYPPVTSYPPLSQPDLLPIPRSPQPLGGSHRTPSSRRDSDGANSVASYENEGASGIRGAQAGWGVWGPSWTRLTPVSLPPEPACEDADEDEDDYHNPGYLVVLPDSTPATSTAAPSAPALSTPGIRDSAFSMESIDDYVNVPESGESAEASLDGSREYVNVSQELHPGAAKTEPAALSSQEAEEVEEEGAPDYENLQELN

Values joined by “and” are separate entries in the source; they are usually repeats but may differ in a detail not shown here. Equal entries are not always repeated.

B1: phospholipase-Cγ1 (PLC-γ1), 1–1219aa, untagged, non-phosphorylated (enzyme)
chain: MAGAASPCANGCGPGAPSDAEVLHLCRSLEVGTVMTLFYSKKSQRPERKTFQVKLETRQITWSRGADKIEGAIDIREIKEIRPGKTSRDFDRYQEDPAFRPDQSHCFVILYGMEFRLKTLSLQATSEDEVNMWIKGLTWLMEDTLQAPTPLQIERWLRKQFYSVDRNREDRISAKDLKNMLSQVNYRVPNMRFLRERLTDLEQRSGDITYGQFAQLYRSLMYSAQKTMDLPFLEASTLRAGERPELCRVSLPEFQQFLLDYQGELWAVDRLQVQEFMLSFLRDPLREIEEPYFFLDEFVTFLFSKENSVWNSQLDAVCPDTMNNPLSHYWISSSHNTYLTGDQFSSESSLEAYARCLRMGCRCIELDCWDGPDGMPVIYHGHTLTTKIKFSDVLHTIKEHAFVASEYPVILSIEDHCSIAQQRNMAQYFKKVLGDTLLTKPVEISADGLPSPNQLKRKILIKHKKLAEGSAYEEVPTSMMYSENDISNSIKNGILYLEDPVNHEWYPHYFVLTSSKIYYSEETSSDQGNEDEEEPKEVSSSTELHSNEKWFHGKLGAGRDGRHIAERLLTEYCIETGAPDGSFLVRESETFVGDYTLSFWRNGKVQHCRIHSRQDAGTPKFFLTDNLVFDSLYDLITHYQQVPLRCNEFEMRLSEPVPQTNAHESKEWYHASLTRAQAEHMLMRVPRDGAFLVRKRNEPNSYAISFRAEGKIKHCRVQQEGQTVMLGNSEFDSLVDLISYYEKHPLYRKMKLRYPINEEALEKIGTAEPDYGALYEGRNPGFYVEANPMPTFKCAVKALFDYKAQREDELTFIKSAIIQNVEKQEGGWWRGDYGGKKQLWFPSNYVEEMVNPVALEPEREHLDENSPLGDLLRGVLDVPACQIAIRPEGKNNRLFVFSISMASVAHWSLDVAADSQEELQDWVKKIREVAQTADARLTEGKIMERRKKIALELSELVVYCRPVPFDEEKIGTERACYRDMSSFPETKAEKYVNKAKGKKFLQYNRLQLSRIYPKGQRLDSSNYDPLPMWICGSQLVALNFQTPDKPMQMNQALFMTGRHCGYVLQPSTMRDEAFDPFDKSSLRGLEPCAISIEVLGARHLPKNGRGIVCPFVEIEVAGAEYDSTKQKTEFVVDNGLNPVWPAKPFHFQISNPEFAFLRFVVYEEDMFSDQNFLAQATFPVKGLKTGYRAVPLKNNYSEDLELASLLIKIDIFPAKENGD
With B1, the % of protein binding to LUV is 44.2% and 37.9%.

Source of the values: paper PMC8908268 (The Journal of Biological Chemistry, 2022).
